PubChem BioAssay AID651582 (Sanford-Burnham Center for Chemical Genomics, 2012)
This is a selection; strong and weak results do not stand in their true shares. Some results for these compounds are left out of this collection, so the calls shown say nothing about other tests. The source made the active and inactive calls.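 How the source made its calls: active means pattern-corrected inhibition of lipid staining of at least 50% with the nuclear-stain viability signal not falling by more than 50%; inactive means the rest, inconclusive results apart.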

assay: inhibitors of triacylglycerol accumulation, primary screen, cell-based, uHTS, fluorescence, H9c2 (AID 651582); details: H9c2 cells, Nile Red lipid (TAG) fluorescence; at 12.5 µM; active compounds read high; cells loaded with 200 µM oleic acid;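 further: 0% = DMSO wells and 100% = triacsin C control wells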

| SMILES | inhibition |
| --- | --- |
| Cc1ccccc1C(=O)NCC1(N2CCCCC2)CCCCC1 | inactive: -10.9% |
| C=CCN1CCN(CCOC(=O)C(O)(c2ccccc2)c2ccccc2)CC1 | inactive: 2.42% |
| O=C(NCC1(N2CCCCC2)CCCCC1)c1cc([N+](=O)[O-])ccc1Cl | inactive: -8.16% |
| CCN(CC)CC(C)C(C)OC(=O)C(O)(c1ccccc1)c1ccccc1 (stereo unspecified) | inactive: 1.29% |
| CC(C)N1C(=O)CC2(CCN(CCOC(=O)C(O)(c3ccccc3)c3ccccc3)CC2)C1=O | inactive: -1.04% |
| O=C(OC1CN2CCC1CC2)C(CO)(c1ccccc1)c1ccccc1 (stereo unspecified) | inactive: 5.37% |
| C=C(C)C#CC(O)(C(=O)OC1CCN(C)CC1)c1ccccc1 (stereo unspecified) | inactive: 7.25% |
| COc1ccc(Br)c(C(=O)NCC2(N3CCCCC3)CCCCC2)c1 | inactive: 4.41% |
| O=C(OCCN1CCCC1)C(O)(c1ccccc1)c1ccccc1 | inactive: -5.05% |
| CN(C)c1cccc(C(=O)NCC2(N(C)C)CCCCC2)c1 | inactive: 3.19% |
| COc1cccc(C(=O)NCC2(N3CCCCC3)CCCCC2)c1 | inactive: -7.11% |
